Values quoted from earlier work in patent US10233246B2, “Antibody and antibody fragment introduced new modification sites” (KYOWA HAKKO KIRIN CO., LTD, priority 2010, dated 2019).

System: Her2-positive progressive breast cancer
Conditions: Phase II trial

**Q.** Which “patients with reduction of the cancer” value does the source give for Tratsuzumab-DM1 here?
**A.** 25%
